# Reference: ChEMBL document CHEMBL2218924, “A broad activity screen in support of a chemogenomic map for kinase signalling research and drug discovery” (Biochem J, 2013)
# Protein sequences, listed by entry. Tags and fused reporters are not part of them. Lines headed by an entry give the natural chain unless they say otherwise; changes in a name come on top.
# UniProt Q05513: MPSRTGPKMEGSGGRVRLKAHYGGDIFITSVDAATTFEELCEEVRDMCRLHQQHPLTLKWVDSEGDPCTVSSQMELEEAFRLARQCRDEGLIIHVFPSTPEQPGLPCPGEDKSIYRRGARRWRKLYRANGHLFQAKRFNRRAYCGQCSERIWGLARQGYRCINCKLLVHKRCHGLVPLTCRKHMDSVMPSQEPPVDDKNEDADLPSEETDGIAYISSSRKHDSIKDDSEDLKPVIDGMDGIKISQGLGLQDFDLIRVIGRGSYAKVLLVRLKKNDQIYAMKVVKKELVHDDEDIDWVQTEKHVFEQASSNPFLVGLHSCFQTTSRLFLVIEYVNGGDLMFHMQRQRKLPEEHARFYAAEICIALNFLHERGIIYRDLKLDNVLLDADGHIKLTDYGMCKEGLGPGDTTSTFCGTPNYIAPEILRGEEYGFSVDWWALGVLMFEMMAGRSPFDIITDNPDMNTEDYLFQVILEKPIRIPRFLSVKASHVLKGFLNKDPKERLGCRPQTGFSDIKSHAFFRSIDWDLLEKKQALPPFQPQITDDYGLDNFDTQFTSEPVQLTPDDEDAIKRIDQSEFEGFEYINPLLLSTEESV
# UniProt P00519, whole entry: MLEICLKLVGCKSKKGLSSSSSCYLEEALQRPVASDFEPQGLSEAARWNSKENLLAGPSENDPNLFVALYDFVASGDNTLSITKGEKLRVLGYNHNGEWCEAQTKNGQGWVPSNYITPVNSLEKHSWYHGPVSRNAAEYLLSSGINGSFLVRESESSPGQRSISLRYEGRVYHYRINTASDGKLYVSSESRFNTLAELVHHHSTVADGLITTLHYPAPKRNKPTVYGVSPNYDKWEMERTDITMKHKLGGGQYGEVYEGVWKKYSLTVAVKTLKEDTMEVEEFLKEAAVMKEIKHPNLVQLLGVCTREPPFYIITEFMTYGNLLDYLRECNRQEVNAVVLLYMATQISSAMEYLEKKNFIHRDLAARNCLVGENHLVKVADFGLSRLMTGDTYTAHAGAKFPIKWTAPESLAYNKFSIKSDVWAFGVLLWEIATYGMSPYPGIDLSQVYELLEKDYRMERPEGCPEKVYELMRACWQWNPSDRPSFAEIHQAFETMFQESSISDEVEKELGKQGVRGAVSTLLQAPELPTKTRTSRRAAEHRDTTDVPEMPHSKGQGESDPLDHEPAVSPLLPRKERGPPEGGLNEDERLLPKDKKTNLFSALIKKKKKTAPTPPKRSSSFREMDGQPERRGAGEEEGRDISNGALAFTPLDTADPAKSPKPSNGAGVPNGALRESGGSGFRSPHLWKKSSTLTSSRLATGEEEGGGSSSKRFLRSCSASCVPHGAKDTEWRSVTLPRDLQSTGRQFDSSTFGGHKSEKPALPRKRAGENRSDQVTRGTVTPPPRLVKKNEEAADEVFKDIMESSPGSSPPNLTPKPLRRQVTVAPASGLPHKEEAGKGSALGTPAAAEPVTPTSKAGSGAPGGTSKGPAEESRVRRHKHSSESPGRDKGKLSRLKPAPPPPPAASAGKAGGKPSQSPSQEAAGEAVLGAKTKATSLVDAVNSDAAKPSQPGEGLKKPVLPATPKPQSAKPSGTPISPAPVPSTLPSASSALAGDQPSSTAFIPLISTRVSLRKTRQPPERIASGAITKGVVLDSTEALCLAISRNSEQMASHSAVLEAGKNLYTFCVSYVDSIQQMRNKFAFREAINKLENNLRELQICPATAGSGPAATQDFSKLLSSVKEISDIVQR
# UniProt P30530, whole entry: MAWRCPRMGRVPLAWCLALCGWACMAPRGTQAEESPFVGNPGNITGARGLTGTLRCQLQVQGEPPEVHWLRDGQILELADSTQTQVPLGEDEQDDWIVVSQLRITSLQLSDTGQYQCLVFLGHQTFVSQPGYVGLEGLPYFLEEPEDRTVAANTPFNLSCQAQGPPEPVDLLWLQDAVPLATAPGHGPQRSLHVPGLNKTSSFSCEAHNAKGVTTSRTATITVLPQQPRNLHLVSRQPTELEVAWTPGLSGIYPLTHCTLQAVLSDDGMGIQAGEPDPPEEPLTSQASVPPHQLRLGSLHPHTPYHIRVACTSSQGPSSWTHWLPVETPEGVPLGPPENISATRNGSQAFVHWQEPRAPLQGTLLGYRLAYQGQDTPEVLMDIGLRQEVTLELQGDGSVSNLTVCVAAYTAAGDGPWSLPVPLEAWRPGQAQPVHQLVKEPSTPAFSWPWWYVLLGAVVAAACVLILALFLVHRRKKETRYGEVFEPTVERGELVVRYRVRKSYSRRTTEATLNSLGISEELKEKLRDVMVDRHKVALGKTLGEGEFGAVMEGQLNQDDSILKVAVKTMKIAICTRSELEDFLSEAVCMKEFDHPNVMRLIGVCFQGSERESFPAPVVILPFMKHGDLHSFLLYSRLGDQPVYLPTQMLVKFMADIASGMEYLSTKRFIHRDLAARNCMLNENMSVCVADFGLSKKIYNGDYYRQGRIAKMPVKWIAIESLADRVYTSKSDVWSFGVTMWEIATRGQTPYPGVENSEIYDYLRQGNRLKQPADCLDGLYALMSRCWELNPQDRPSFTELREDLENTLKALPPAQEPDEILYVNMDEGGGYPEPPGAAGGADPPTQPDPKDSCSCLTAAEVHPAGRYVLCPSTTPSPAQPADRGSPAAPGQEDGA
# UniProt Q06187: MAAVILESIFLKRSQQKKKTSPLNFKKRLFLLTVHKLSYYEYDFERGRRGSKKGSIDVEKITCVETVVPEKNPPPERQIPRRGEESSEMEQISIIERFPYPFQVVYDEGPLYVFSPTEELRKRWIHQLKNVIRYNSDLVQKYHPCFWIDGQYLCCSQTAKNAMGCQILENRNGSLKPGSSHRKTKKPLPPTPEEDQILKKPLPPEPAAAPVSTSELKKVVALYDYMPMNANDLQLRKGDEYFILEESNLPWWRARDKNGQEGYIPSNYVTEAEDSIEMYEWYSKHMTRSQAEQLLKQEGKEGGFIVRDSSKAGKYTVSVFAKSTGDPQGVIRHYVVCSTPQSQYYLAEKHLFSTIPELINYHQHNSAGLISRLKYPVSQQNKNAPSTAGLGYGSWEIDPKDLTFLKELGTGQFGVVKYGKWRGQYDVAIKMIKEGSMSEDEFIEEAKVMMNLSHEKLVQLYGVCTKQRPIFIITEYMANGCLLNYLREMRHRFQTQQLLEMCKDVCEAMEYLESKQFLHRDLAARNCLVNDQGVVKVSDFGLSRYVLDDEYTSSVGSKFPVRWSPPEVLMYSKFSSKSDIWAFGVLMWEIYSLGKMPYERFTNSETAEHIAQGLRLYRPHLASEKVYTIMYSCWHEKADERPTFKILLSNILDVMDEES
# UniProt O96017, whole entry: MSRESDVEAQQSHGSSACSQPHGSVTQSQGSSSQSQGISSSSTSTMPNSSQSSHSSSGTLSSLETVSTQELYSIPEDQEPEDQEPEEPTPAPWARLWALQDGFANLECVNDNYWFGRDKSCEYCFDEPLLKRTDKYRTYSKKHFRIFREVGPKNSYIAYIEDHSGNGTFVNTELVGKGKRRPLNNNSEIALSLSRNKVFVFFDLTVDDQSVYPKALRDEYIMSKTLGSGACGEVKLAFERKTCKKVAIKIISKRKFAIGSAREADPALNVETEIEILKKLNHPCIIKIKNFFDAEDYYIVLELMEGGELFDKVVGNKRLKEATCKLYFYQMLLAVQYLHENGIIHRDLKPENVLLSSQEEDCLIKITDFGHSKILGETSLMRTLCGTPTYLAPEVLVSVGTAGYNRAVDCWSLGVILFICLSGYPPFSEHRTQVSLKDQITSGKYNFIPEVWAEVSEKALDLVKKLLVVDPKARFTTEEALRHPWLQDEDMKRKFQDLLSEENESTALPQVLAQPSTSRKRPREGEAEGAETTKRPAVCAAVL
# UniProt P48730: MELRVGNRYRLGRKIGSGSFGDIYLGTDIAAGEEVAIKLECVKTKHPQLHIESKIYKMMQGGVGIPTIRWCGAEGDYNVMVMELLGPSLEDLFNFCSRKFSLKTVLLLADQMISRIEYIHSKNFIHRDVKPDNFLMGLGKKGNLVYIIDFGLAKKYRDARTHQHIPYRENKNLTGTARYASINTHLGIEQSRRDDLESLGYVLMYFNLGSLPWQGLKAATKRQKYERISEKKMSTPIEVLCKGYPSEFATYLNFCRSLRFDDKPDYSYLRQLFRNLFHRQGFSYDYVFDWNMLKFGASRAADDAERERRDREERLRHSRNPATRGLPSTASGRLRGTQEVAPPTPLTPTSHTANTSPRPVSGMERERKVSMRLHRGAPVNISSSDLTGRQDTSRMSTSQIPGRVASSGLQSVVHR
# UniProt Q13555: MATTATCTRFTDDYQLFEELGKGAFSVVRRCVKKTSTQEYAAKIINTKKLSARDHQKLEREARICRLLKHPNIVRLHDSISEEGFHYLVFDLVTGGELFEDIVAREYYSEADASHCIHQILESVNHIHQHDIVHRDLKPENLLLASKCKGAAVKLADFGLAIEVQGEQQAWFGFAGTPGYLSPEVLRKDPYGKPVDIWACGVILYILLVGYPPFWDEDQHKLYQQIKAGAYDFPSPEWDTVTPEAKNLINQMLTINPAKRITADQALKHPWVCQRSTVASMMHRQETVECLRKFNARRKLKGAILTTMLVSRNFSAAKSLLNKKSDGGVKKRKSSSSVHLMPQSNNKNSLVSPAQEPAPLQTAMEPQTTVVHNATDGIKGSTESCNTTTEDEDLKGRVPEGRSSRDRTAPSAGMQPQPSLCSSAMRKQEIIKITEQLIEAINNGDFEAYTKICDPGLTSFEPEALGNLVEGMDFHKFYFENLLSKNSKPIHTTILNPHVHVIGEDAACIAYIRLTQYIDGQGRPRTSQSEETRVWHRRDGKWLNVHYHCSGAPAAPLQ
# UniProt Q92630: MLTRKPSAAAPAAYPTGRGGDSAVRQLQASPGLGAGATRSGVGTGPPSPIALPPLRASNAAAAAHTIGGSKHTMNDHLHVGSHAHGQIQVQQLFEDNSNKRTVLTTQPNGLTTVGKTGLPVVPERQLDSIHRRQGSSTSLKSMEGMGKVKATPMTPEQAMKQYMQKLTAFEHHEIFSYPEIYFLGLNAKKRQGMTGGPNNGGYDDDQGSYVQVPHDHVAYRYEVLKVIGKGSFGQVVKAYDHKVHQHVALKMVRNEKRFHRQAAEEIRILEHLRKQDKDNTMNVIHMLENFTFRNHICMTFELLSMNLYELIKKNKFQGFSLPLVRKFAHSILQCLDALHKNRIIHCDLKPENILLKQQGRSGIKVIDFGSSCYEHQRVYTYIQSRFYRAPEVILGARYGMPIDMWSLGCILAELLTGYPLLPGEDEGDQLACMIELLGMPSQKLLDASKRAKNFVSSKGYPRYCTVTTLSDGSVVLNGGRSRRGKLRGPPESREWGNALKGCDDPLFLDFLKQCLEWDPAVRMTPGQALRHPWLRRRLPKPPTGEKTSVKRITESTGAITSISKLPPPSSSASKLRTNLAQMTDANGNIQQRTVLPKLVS
# UniProt P29317, whole entry: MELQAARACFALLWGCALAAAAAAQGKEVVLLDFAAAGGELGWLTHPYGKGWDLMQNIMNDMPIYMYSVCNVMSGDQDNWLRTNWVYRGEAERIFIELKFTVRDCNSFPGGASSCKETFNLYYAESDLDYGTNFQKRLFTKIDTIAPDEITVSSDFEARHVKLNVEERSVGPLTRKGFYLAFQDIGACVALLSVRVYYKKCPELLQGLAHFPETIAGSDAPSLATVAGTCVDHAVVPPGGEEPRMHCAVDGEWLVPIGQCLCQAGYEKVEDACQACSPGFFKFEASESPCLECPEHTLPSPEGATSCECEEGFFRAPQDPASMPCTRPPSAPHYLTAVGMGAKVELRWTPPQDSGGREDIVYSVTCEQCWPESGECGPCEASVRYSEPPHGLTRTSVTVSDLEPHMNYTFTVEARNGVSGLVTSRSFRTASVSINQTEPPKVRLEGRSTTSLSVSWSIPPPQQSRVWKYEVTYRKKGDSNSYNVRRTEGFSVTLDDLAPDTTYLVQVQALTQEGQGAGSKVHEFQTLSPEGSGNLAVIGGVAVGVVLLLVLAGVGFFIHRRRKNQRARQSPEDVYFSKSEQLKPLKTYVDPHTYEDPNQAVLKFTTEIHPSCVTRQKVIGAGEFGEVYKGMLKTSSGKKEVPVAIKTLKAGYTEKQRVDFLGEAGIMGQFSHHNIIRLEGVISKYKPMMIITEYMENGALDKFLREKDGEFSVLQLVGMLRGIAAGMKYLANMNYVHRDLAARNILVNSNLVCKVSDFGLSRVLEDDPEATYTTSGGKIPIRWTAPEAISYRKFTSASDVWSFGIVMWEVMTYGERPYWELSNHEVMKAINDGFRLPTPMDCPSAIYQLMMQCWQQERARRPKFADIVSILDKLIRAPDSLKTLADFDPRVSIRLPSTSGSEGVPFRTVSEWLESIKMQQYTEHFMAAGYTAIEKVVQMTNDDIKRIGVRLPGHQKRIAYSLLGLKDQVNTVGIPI
# For part of these data: Most of the strong results are listed elsewhere, so they are rarer here than in the full data. The rule behind the calls is not given here. This is a selection; strong and weak results do not stand in their true shares.
# Columns and labels:
# [1] = molecular target: Protein kinase C zeta type (Homo sapiens) (UniProt Q05513); conditions: at 1 µM
# [2] = molecular target: Tyrosine-protein kinase ABL1 (Homo sapiens) (UniProt P00519); conditions: at 1 µM
# [3] = molecular target: Aurora kinase A (Homo sapiens) (UniProt O14965); conditions: at 1 µM
# [4] = molecular target: Aurora kinase B (Homo sapiens) (UniProt Q96GD4); conditions: at 1 µM
# [5] = molecular target: Aurora kinase C (Homo sapiens) (UniProt Q9UQB9); conditions: at 1 µM
# [6] = molecular target: Tyrosine-protein kinase receptor UFO (Homo sapiens) (UniProt P30530); conditions: at 1 µM
# [7] = molecular target: Protein-tyrosine kinase 6 (Homo sapiens) (UniProt Q13882); conditions: at 10 µM
# [8] = molecular target: Tyrosine-protein kinase BTK (Homo sapiens) (UniProt Q06187); conditions: at 1 µM
# [9] = molecular target: Tyrosine-protein kinase BTK (Homo sapiens) (UniProt Q06187); conditions: at 10 µM
# [10] = molecular target: Tyrosine-protein kinase Blk (Homo sapiens) (UniProt P51451); conditions: at 1 µM
# [11] = molecular target: T1, Serine/threonine-protein kinase BRSK2 (Homo sapiens) (UniProt Q8IWQ3); conditions: at 1 µM
# T1 sequence (whole entry): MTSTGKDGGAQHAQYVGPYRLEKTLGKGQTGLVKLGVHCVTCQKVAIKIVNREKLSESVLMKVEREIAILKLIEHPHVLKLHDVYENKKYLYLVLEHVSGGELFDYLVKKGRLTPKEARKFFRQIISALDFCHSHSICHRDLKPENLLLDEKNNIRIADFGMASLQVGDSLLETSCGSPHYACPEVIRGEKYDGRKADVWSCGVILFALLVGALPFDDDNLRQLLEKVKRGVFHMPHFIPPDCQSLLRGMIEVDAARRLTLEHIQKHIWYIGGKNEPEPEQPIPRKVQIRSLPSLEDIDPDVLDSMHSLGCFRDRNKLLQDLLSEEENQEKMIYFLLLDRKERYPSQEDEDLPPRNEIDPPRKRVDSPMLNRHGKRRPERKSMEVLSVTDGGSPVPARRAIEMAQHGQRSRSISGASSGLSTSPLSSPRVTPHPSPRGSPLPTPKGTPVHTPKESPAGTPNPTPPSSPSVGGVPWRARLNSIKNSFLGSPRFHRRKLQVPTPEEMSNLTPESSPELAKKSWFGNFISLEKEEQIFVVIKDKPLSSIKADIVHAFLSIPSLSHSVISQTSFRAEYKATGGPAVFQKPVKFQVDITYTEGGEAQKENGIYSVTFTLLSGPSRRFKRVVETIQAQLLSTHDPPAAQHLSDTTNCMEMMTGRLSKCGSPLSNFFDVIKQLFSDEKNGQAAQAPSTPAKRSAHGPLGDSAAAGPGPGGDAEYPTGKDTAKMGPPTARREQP
# [12] = molecular target: Serine/threonine-protein kinase Chk2 (Homo sapiens) (UniProt O96017); conditions: at 1 µM
# [13] = molecular target: Casein kinase I isoform gamma-1 (Homo sapiens) (UniProt Q9HCP0); conditions: at 1 µM
# [14] = molecular target: Casein kinase I isoform gamma-1 (Homo sapiens) (UniProt Q9HCP0); conditions: at 10 µM
# [15] = molecular target: Casein kinase I isoform delta (Homo sapiens) (UniProt P48730); conditions: at 1 µM
# [16] = molecular target: Casein kinase II subunit alpha' (Homo sapiens) (UniProt P19784); conditions: at 10 µM
# [17] = molecular target: Calcium/calmodulin-dependent protein kinase type II subunit gamma (Homo sapiens) (UniProt Q13555); conditions: at 1 µM
# [18] = molecular target: Death-associated protein kinase 1 (Homo sapiens) (UniProt P53355); conditions: at 1 µM
# [19] = molecular target: Death-associated protein kinase 2 (Homo sapiens) (UniProt Q9UIK4); conditions: at 1 µM
# [20] = molecular target: Death-associated protein kinase 2 (Homo sapiens) (UniProt Q9UIK4); conditions: at 10 µM
# [21] = molecular target: T2, Discoidin domain-containing receptor 2 (Homo sapiens) (UniProt Q16832); conditions: at 10 µM
# T2 sequence (whole entry): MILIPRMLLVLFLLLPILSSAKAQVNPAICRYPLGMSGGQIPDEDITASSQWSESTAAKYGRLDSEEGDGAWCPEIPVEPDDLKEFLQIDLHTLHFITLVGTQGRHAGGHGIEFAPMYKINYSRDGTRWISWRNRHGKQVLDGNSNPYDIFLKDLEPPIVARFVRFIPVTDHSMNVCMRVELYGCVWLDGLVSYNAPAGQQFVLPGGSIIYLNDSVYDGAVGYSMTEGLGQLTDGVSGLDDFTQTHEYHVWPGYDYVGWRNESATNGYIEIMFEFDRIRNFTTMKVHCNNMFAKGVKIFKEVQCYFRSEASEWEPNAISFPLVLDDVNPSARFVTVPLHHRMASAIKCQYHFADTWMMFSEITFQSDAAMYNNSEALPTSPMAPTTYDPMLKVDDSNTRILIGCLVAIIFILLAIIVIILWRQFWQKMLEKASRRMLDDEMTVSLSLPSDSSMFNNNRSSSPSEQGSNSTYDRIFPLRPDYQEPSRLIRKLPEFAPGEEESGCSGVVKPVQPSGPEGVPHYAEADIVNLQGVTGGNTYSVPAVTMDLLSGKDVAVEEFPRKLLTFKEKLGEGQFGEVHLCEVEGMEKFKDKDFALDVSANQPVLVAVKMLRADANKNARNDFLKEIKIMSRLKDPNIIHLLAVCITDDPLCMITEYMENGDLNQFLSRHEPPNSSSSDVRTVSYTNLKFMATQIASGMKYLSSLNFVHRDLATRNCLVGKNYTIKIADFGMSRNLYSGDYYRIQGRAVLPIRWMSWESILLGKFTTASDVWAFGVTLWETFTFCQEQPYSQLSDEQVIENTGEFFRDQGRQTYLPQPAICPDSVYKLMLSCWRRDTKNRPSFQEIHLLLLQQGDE
# [22] = molecular target: Serine/threonine-protein kinase 17A (Homo sapiens) (UniProt Q9UEE5); conditions: at 1 µM
# [23] = molecular target: Dual specificity tyrosine-phosphorylation-regulated kinase 2 (Homo sapiens) (UniProt Q92630); conditions: at 1 µM
# [24] = molecular target: T3, Ephrin type-A receptor 1 (Homo sapiens) (UniProt P21709); conditions: at 1 µM
# T3 sequence (whole entry): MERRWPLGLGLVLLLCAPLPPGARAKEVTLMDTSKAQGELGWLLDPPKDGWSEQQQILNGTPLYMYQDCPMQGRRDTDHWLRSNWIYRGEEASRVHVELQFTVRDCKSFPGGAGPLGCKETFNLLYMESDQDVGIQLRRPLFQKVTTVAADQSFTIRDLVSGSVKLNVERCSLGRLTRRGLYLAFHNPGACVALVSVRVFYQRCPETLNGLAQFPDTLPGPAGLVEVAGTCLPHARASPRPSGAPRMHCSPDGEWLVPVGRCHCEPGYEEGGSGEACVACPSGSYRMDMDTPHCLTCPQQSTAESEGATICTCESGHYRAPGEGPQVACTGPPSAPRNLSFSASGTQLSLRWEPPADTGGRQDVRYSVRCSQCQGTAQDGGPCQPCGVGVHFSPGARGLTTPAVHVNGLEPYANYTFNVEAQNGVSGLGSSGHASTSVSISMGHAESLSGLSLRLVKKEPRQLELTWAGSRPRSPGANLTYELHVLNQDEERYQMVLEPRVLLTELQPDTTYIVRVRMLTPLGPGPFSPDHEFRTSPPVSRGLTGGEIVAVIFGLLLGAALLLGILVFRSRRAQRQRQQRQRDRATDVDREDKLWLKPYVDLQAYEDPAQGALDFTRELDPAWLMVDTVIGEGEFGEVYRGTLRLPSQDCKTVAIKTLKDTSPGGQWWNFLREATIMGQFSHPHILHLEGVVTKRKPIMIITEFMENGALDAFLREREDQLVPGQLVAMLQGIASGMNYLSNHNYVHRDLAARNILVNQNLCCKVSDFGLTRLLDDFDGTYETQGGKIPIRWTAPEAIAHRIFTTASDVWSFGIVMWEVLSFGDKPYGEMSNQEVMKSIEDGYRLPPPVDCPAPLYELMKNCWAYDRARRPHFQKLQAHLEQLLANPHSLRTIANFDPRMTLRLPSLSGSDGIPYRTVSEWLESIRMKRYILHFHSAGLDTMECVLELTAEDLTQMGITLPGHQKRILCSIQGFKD
# [25] = molecular target: T3, Ephrin type-A receptor 1 (Homo sapiens); conditions: at 10 µM
# [26] = molecular target: Ephrin type-A receptor 2 (Homo sapiens) (UniProt P29317); conditions: at 10 µM
# [27] = molecular target: T4, Ephrin type-A receptor 3 (Homo sapiens) (UniProt P29320); conditions: at 1 µM
# T4 sequence (whole entry): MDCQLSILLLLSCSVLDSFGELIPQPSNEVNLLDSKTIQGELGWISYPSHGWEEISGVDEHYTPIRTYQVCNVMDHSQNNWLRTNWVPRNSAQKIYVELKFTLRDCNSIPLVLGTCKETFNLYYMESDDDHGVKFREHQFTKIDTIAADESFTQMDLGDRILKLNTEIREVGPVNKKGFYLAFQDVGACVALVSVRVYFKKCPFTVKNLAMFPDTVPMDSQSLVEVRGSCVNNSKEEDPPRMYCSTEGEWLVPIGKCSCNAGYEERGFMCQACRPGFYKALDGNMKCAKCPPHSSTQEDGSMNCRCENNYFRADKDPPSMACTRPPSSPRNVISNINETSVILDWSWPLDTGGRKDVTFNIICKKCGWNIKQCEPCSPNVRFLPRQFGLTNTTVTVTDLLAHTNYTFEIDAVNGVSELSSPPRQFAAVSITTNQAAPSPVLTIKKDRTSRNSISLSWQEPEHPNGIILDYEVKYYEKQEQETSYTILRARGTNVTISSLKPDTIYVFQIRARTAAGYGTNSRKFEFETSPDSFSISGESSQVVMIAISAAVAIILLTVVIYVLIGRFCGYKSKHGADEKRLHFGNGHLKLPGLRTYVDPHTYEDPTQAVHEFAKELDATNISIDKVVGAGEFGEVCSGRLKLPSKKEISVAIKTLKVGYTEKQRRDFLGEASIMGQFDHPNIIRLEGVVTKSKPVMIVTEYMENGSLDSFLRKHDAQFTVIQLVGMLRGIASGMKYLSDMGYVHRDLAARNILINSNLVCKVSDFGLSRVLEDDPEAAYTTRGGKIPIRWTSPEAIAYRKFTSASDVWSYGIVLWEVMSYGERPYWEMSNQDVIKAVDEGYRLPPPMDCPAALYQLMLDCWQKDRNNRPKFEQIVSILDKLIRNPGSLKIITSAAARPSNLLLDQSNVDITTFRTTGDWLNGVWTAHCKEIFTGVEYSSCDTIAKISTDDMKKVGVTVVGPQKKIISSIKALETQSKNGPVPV
compound,measurement,setting,value
O=C1NC(=O)C(c2cn(CCCn3ccnc3)c3ccccc23)=C1Nc1ccccc1,residual activity,[1],inactive: 87%
same,residual activity,[2],98%
same,residual activity,[3],86%
same,residual activity,[4],99%
same,residual activity,[5],85%
same,residual activity,[6],86%
same,residual activity,[7],89%
same,residual activity,[8],101%
same,residual activity,[9],96%
same,residual activity,[10],85%
same,residual activity,[11],89%
same,residual activity,[12],95%
same,residual activity,[13],98%
same,residual activity,[14],84%
same,residual activity,[15],86%
same,residual activity,[16],91%
same,residual activity,[17],88%
same,residual activity,[18],89%
same,residual activity,[19],95%
same,residual activity,[20],101%
same,residual activity,[21],95%
same,residual activity,[22],98%
same,residual activity,[23],98%
same,residual activity,[24],84%
same,residual activity,[25],83%
same,residual activity,[26],98%
same,residual activity,[27],89%
